Read-outs that look alike come from different tables or passages of the source.
Assays:
[1] = system: P. aeruginosa PA01; assay: MIC, microbroth dilution in Mueller-Hinton broth; type: cell-based; conditions: Pseudomonas aeruginosa
[2] = system: E. coli BW25113; assay: MIC, microbroth dilution in Mueller-Hinton broth; type: cell-based; conditions: Escherichia coli, BW25113, read-out: MIC EC, E. coli BW25113; Mueller-Hinton broth (Table 2)

Measured: MIC

CCN1CCN(C(=O)N[C@@H](C(=O)N[C@@H]2C(=O)N3[C@@H]2SC(C)(C)[C@@H]3C(=O)O)c2ccccc2)C(=O)C1=O [piperacillin, reference compound]
6.25 µg/mL: [1]; PA01, read-out: MIC PA | [1]; PA01, read-out: MIC PA − | [2]
